Experimental data from US10301371B2, “Cyclic monomer and dimer peptides having integrin antagonist activity” (Protagonist Therapeutics, Inc., priority 2014, dated 2019).
Like-named read-outs stand apart in the source and are kept apart here.

Molecular target: T1, rh integrin α4β7 (Homo sapiens, UniProt P13612+P26010, DEL724-798)
T1 construct: purchased R&D Systems 5397-A30
T1 sequence (P13612 34-977 limits assumed): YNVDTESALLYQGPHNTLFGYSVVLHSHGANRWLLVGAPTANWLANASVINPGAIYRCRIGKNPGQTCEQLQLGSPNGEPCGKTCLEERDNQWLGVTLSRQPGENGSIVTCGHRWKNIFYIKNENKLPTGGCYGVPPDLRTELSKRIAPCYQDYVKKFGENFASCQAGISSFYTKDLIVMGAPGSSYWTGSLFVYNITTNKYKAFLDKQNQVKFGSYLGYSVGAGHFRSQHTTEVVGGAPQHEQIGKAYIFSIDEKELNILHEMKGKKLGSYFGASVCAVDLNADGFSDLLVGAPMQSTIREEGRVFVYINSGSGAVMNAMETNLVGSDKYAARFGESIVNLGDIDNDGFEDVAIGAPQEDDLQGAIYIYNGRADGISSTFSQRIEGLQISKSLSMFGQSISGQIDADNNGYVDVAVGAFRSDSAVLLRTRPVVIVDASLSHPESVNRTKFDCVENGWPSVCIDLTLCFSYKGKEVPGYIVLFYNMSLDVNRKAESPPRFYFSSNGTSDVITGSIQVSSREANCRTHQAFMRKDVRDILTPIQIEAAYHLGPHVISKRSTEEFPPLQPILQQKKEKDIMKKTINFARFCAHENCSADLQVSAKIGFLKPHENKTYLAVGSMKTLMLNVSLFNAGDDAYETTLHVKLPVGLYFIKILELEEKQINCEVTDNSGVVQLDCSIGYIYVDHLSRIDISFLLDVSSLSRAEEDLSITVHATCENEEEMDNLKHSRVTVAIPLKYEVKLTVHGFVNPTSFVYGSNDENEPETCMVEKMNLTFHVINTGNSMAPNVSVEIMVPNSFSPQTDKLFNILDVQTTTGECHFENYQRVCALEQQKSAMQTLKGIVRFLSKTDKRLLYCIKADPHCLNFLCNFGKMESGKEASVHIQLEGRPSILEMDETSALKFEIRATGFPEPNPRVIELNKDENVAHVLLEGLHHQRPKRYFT
T1 sequence (P26010 20-723 limits assumed): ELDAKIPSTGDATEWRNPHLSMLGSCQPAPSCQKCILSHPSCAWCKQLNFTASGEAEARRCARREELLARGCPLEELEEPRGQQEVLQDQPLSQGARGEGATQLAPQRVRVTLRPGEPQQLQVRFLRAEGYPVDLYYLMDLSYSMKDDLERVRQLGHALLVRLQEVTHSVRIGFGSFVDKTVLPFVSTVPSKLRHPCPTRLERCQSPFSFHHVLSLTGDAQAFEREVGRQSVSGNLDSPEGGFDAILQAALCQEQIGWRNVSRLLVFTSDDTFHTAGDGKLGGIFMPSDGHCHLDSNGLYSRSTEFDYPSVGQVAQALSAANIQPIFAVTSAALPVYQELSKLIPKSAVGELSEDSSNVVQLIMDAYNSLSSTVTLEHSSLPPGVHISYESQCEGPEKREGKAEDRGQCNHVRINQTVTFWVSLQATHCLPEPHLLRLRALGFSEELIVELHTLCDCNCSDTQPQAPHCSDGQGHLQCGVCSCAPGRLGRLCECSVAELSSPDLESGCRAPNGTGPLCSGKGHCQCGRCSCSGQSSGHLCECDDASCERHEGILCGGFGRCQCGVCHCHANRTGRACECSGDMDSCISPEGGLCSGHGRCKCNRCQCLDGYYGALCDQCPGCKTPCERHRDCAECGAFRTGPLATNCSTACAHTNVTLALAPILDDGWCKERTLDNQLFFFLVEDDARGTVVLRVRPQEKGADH
Assay: α4β7-MAdCAM Competition ELISA
Type: binding
Details: potency
Procedure: α4β7-MAdCAM Competition ELISA
A nickel coated plate (Pierce #15442) is coated with rh integrin α4β7 (R&D Systems #5397-A30) at 800 ng/well and incubated at room temperature with shaking for 1 hr. The solution iss then remove by shaking and blocked with assay buffer (50 mM Tris-HCl pH7.6, 150 mM NaCl, 1 mM MnCl2 or MgCl2, 0.05% Tween-20 and 0.5% BSA) at 250 ul/well. The plate was then incubated at room temperature for 1 hr. Each well was washed 3 times with wash buffer (50 mM Tris-HCl pH7.6, 100 mM NaCl, 1 mM MnCl2 or MgCl2, 0.05% Tween-20). To each well was added 25 ul of a serial dilution (3-fold dilutions in assay buffer) of peptides starting at 20 μM. 25 ul of recombinant human MAdCAM-1 (R&D Systems #6056-MC) was then added to each well at a fixed concentration 20 nM. The final starting peptide concentration was 10 μM, and the final MAdCAM-1 concentration was 10 nM. The plates were then incubated at room temperature for 1 hr to reach binding equilibrium. The wells were then washed three times with wash buffer. 50 ul of mouse antihuman IgG1-HRP (Invitrogen # A10648) diluted in 1:2000 in assay buffer was then added to each well. The wells are incubated at room temperature for 45 min with shaking. The wells were then washed 3 times with wash buffer. 100 ul of TMB were then added to each well and closely observe during development time. The reaction was stopped with 2N H2SO4 and absorbance was read at 450 nm.

SMILES: CC(C)C[C@@H]1NC(=O)[C@H]([C@@H](C)O)NC(=O)[C@H](CC(=O)O)NC(=O)[C@H](CO)NC(=O)[C@H](CCCNC(=N)N)N(C)C(=O)[C@@H](C)NC(=O)[C@@H](Cc2c[nH]cn2)NC1=O [compound 491]
- IC50 (read-out: ELISA a4b7): 100 to 1000 nM

SMILES: CC(C)C[C@@H]1NC(=O)[C@H]([C@@H](C)O)NC(=O)[C@H](CC(=O)O)NC(=O)[C@H](CO)NC(=O)[C@H](CCCNC(=N)N)N(C)C(=O)[C@@H](C)NC(=O)[C@@H](C)NC(=O)[C@H](C)NC1=O [compound 504]
- IC50 (read-out: ELISA a4b7): > 1000 nM

SMILES: CC(C)C[C@@H]1NC(=O)[C@H]([C@@H](C)O)NC(=O)[C@H](CC(=O)O)NC(=O)[C@H](CO)NC(=O)[C@H](CCCNC(=N)N)N(C)C(=O)[C@@H](Cc2c[nH]cn2)NC(=O)[C@@H](C)NC1=O [compound 480]
- IC50 (read-out: ELISA a4b7): > 1000 nM

SMILES: CC(C)C[C@@H]1NC(=O)[C@H]([C@@H](C)O)NC(=O)[C@H](CC(=O)O)NC(=O)[C@H](CO)NC(=O)[C@H](CCCNC(=N)N)N(C)C(=O)[C@@H](C)NC(=O)[C@@H](Cc2ccccc2)NC1=O [compound 493]
- IC50 (read-out: ELISA a4b7): 100 to 1000 nM

SMILES: CC(C)C[C@@H]1NC(=O)[C@H]([C@@H](C)O)NC(=O)[C@H](CC(=O)O)NC(=O)[C@H](CO)NC(=O)[C@H](CCCNC(=N)N)N(C)C(=O)[C@@H](CCCNC(=N)N)NC(=O)[C@@H](C)NC1=O [compound 501]
- IC50 (ELISA a4b7 (nM)): 100 to 1000 nM

SMILES: CC(C)C[C@@H]1NC(=O)[C@H]([C@@H](C)O)NC(=O)[C@H](CC(=O)O)NC(=O)[C@H](CO)NC(=O)[C@H](CCCNC(=N)N)N(C)C(=O)[C@H]2CCCN2C(=O)[C@@H](C)NC1=O [compound 498]
- IC50 (read-out: ELISA a4b7): > 1000 nM

SMILES: CC(C)C[C@@H]1NC(=O)[C@H]([C@@H](C)O)NC(=O)[C@H](CC(=O)O)NC(=O)[C@H](CO)NC(=O)[C@H](CCCNC(=N)N)N(C)C(=O)[C@@H](C)NC(=O)[C@@H](Cc2ccccc2)NC1=O [compound 492]
- IC50 (read-out: ELISA a4b7): > 1000 nM

SMILES: CC(C)C[C@@H]1NC(=O)[C@H]([C@@H](C)O)NC(=O)[C@H](CC(=O)O)NC(=O)[C@H](CO)NC(=O)[C@H](CCCNC(=N)N)N(C)C(=O)[C@@H](Cc2ccccc2)NC(=O)[C@@H](C)NC1=O [compound 494]
- IC50 (read-out: ELISA a4b7): > 1000 nM

SMILES: CC(C)C[C@@H]1NC(=O)[C@H]([C@@H](C)O)NC(=O)[C@H](CC(=O)O)NC(=O)[C@H](CO)NC(=O)[C@H](CCCNC(=N)N)N(C)C(=O)[C@H](C)NC(=O)[C@@H](C)NC1=O [compound 502]
- IC50 (read-out: ELISA a4b7): > 1000 nM

SMILES: CC(C)C[C@@H]1NC(=O)[C@H]([C@@H](C)O)NC(=O)[C@H](CC(=O)O)NC(=O)[C@H](CO)NC(=O)[C@H](CCCNC(=N)N)N(C)C(=O)[C@@H](CC(C)C)NC(=O)[C@@H](C)NC1=O [compound 497]
- IC50 (ELISA a4b7 (nM)): 100 to 1000 nM

SMILES: CC(C)C[C@@H]1NC(=O)[C@H]([C@@H](C)O)NC(=O)[C@H](CC(=O)O)NC(=O)[C@H](CO)NC(=O)[C@H](CCCNC(=N)N)N(C)C(=O)[C@@H](CCCCN)NC(=O)[C@@H](C)NC1=O [compound 487]
- IC50 (read-out: ELISA a4b7): 100 to 1000 nM

SMILES: CC(C)C[C@@H]1NC(=O)[C@H]([C@@H](C)O)NC(=O)[C@H](CC(=O)O)NC(=O)[C@H](CO)NC(=O)[C@H](CCCNC(=N)N)N(C)C(=O)[C@@H](Cc2c[nH]cn2)NC(=O)[C@@H](C)NC1=O [compound 481]
- IC50 (read-out: ELISA a4b7): 100 to 1000 nM

SMILES: CC(C)C[C@@H]1NC(=O)[C@H]([C@@H](C)O)NC(=O)[C@H](CC(=O)O)NC(=O)[C@H](CO)NC(=O)[C@H](CCCNC(=N)N)N(C)C(=O)[C@H](C)NC(=O)[C@@H](CCCCN)NC1=O [compound 503]
- IC50 (read-out: ELISA a4b7): > 1000 nM

SMILES: CC(C)C[C@@H]1NC(=O)[C@H]([C@@H](C)O)NC(=O)[C@H](CC(=O)O)NC(=O)[C@H](CO)NC(=O)[C@H](CCCNC(=N)N)N(C)C(=O)[C@@H](CCCCN)NC(=O)[C@@H](C)NC1=O [compound 485]
- IC50 (read-out: ELISA a4b7): > 1000 nM

SMILES: CC(C)C[C@@H]1NC(=O)[C@H]([C@@H](C)O)NC(=O)[C@H](CC(=O)O)NC(=O)[C@H](CO)NC(=O)[C@H](CCCNC(=N)N)N(C)C(=O)[C@@H](C)NC(=O)[C@@H](CC(N)=O)NC1=O [compound 478]
- IC50 (read-out: ELISA a4b7): > 1000 nM

SMILES: CC(C)C[C@@H]1NC(=O)[C@H]([C@@H](C)O)NC(=O)[C@H](CC(=O)O)NC(=O)[C@H](CO)NC(=O)[C@H](CCCNC(=N)N)N(C)C(=O)[C@@H](C)NC(=O)[C@@H](Cc2c[nH]cn2)NC1=O [compound 490]
- IC50 (read-out: ELISA a4b7): > 1000 nM

SMILES: CC(C)C[C@@H]1NC(=O)[C@H]([C@@H](C)O)NC(=O)[C@H](CC(=O)O)NC(=O)[C@H](CO)NC(=O)[C@H](CCCNC(=N)N)N(C)C(=O)[C@@H](CCCNC(=N)N)NC(=O)[C@@H](C)NC1=O [compound 500]
- IC50 (ELISA a4b7 (nM)): > 1000 nM

SMILES: CC(C)C[C@@H]1NC(=O)[C@H]([C@@H](C)O)NC(=O)[C@H](CC(=O)O)NC(=O)[C@H](CO)NC(=O)[C@H](CCCNC(=N)N)N(C)C(=O)[C@@H](C)NC(=O)[C@@H](CCC(=O)O)NC1=O [compound 482]
- IC50 (read-out: ELISA a4b7): > 1000 nM

SMILES: CC(C)C[C@@H]1NC(=O)[C@H]([C@@H](C)O)NC(=O)[C@H](CC(=O)O)NC(=O)[C@H](CO)NC(=O)[C@H](CCCNC(=N)N)N(C)C(=O)[C@H]2CCCN2C(=O)[C@@H](C)NC1=O [compound 499]
- IC50 (read-out: ELISA a4b7): 100 to 1000 nM

SMILES: CC(C)C[C@@H]1NC(=O)[C@H]([C@@H](C)O)NC(=O)[C@H](CC(=O)O)NC(=O)[C@H](CO)NC(=O)[C@H](CCCNC(=N)N)N(C)C(=O)[C@@H](CC(C)C)NC(=O)[C@@H](C)NC1=O [compound 496]
- IC50 (ELISA a4b7 (nM)): > 1000 nM
